# Ab-14 light chain CDR variants: yeast mating affinities

Antigen: PDVDLGDISGINAS, a 14-residue peptide of the SARS-CoV-2 spike HR2 region.

Parent scFv Ab-14: VH joined to VL by the linker GGGGSGGGGSGGGGS. Changes lie in the light chain CDRs alone.
VH: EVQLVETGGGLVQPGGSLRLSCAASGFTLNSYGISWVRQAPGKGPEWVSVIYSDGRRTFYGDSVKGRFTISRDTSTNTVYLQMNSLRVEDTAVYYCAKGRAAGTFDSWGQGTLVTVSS
VL: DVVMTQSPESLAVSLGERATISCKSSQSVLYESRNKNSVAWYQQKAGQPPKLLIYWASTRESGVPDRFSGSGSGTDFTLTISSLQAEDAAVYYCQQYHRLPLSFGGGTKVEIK

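Phage display of a naive human antibody library on the peptide gave the parent. These sequences belong to a second round, designed from the earlier measurements on random variants of the parent. Group labels follow the data file (Ctrl: baseline library sampled from a position-specific scoring matrix, with some repeated check sequences; En: ensemble of fine-tuned language models; GP: Gaussian process model; HC: hill climbing; Gen: genetic algorithm; Gibbs: Gibbs sampling; a sequence that several methods proposed may carry one label only). In AlphaSeq, yeast of one mating type display the scFv and yeast of the other type display the target. Binding brings cells together so that they mate, and sequencing counts the barcode pairs among the diploids. The ratio of observed to expected reads was calibrated, replicate by replicate, on BCL2-family standards whose Kd was known from biolayer interferometry. Each pool was mated in six replicate cultures.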

Each variant is given by its three light chain CDRs, as the data file delimits them; those of the parent are KSSQSVLYESRNKNSVA, WASTRES, QQYHRLPLS.
Kd is apparent (estimated from mating counts) and averaged on the log scale over replicates with a signal. Smaller is tighter.
Where no diploid with the target was found in any replicate, the entry reads "nd": below detection, most likely a poor binder, though not proof of it.

| # | CDR-L1 | CDR-L2 | CDR-L3 | group | Kd | replicates with signal | empty controls |
|---|---|---|---|---|---|---|---|
| 1 | KSSQSVLYESRNKNSVA | GASTRES | QNYHRLPLS | GP_HC | 2.8 nM | 6 of 6 | 0 of 18 |
| 2 | KSSQSVLYESRNKNSVA | DAMTRES | QQYHRLPLS | Ctrl | 910 pM | 6 of 6 | 1 of 18 |
| 3 | IAVQSWLYESRNKNSVA | GASTRED | QQYHRLPLI | GP_HC | 7.5 nM | 6 of 6 | 0 of 18 |
| 4 | MLSEFMHMLGAKKNSIA | DLVLRAN | QQYHRLPLS | En_Gen | 2.5 nM | 6 of 6 | 0 of 18 |
| 5 | TLTQSALMESHNKNSVA | DLSTRGS | QQYHRLPLS | En_HC | 1.1 nM | 6 of 6 | 0 of 18 |
| 6 | MMSQVTGQGTRHRNNVA | QTETREP | QQYDRLPLM | En_Gen | 6.6 nM | 6 of 6 | 0 of 18 |
| 7 | TISESWMYESRNKNNVA | EESTKYD | QSYFRLPLS | En_HC | 2.2 nM | 6 of 6 | 1 of 18 |
| 8 | KSFFSEPGESRNKNSVA | SASTRES | QQYHRLPLS | GP_Gibbs | 2.1 nM | 6 of 6 | 3 of 18 |
| 9 | KMSQSVDLESRNWNAVA | MASTRMD | QQYHRLPLS | GP_Gibbs | 3.4 nM | 6 of 6 | 0 of 18 |
| 10 | QFTQNIFYGQRDDNSIA | HADELVK | QQYDRFPLA | En_Gibbs | 160 nM | 4 of 6 | 0 of 18 |
| 11 | KCSQSVDNETRNKNSVA | WASTRSS | QQYHDLPLS | Ctrl | 620 nM | 3 of 6 | 1 of 18 |
| 12 | KLREVQHVETKQKSNVA | DNDTRES | QDYYRLPLS | En_HC | 190 nM | 5 of 6 | 1 of 18 |
| 13 | TISQMWFIESKNRNNVA | EMTTREE | QDYDRLPLS | En_HC | 4.0 nM | 3 of 6 | 0 of 18 |
| 14 | KIRVHNLMFYQNENSIA | GQSNRAY | QQYYHLPLT | En_Gibbs | 170 nM | 5 of 6 | 1 of 18 |
| 15 | KLVQFMNRGTHHTSNIA | DAQNRLD | QQYYRLPLA | En_Gen | nd | 0 of 6 | 0 of 18 |
| 16 | TLYGLTNSMSKNKNNVA | EMSTREA | QQYDRLPLI | En_Gen | 41 nM | 6 of 6 | 0 of 18 |
| 17 | KLSWSMLYESRNVNSVA | DASTRES | QQYHRLPLS | GP_Gibbs | 510 pM | 6 of 6 | 1 of 18 |
| 18 | KARQSNLYESRNQNSVA | NASQRLD | QQYHRLPLS | GP_Gibbs | 2.8 nM | 6 of 6 | 1 of 18 |
| 19 | KASQSLLYESRNKNSVA | WASTRES | QQYHRLPLS | Ctrl | 13 nM | 6 of 6 | 0 of 18 |
| 20 | KSSQSVLIESRNKNSVA | EASTREN | QQYHRLPLS | Ctrl | 2.4 nM | 6 of 6 | 1 of 18 |
| 21 | KSSDSVLQESRNKNSVA | DASTRES | QQYHRLPLS | GP_HC | 1.9 nM | 6 of 6 | 1 of 18 |
| 22 | NFSQMVLTGMTLRNSVA | HASTREE | QQYHRLPLI | En_HC | 8.8 nM | 5 of 6 | 1 of 18 |
| 23 | KLTMITGTEKVIGNNVA | EMETREN | QQYNRLPLS | En_Gen | 2.7 nM | 6 of 6 | 0 of 18 |
| 24 | KSSQSVVYESRNKNSVA | AASTRES | QQYHRLPLS | Ctrl | 5.8 nM | 6 of 6 | 2 of 18 |
| 25 | KIYEMTGYQSRNADSIA | DNSTRGR | QQYHRLPLS | En_HC | 25 nM | 6 of 6 | 1 of 18 |
| 26 | TVSQVHDMLSRNKNSVA | DENTRES | QQYDRLPLS | En_HC | 12 nM | 6 of 6 | 1 of 18 |
| 27 | MISDLTMYGSRNVNSVA | DLSTRGR | QQYDRLPLS | En_HC | 2.4 nM | 6 of 6 | 3 of 18 |
| 28 | MLSQMWGTGMKASNSVA | QASMRFN | QQYHRLPLI | En_Gen | 35 nM | 6 of 6 | 1 of 18 |
| 29 | KLPQSVLYESRNKNSVA | EASTRED | QQYHRLPLS | GP_Gen | 320 pM | 6 of 6 | 1 of 18 |

Continued, with the values leading:

| # | Kd | replicates with signal | empty controls | CDR-L1 | CDR-L2 | CDR-L3 | group |
|---|---|---|---|---|---|---|---|
| 30 | 1.5 nM | 6 of 6 | 0 of 18 | KLMQSPEYESRNANSVA | NASQREE | QQYHRLPLS | GP_Gibbs |
| 31 | 2.2 nM | 6 of 6 | 1 of 18 | KCMQSSDYESRNKNSVA | NASTREV | QQYHRLPLS | GP_Gibbs |
| 32 | 1.2 nM | 6 of 6 | 0 of 18 | KLQFSEEYESRNKNSVA | MASTRCD | QQYHRLPLS | GP_Gibbs |
| 33 | 4.5 nM | 6 of 6 | 0 of 18 | ISSQSVLPESRNKNSVA | DASTRES | QQYHRLPLS | GP_HC |
| 34 | 2.2 nM | 6 of 6 | 1 of 18 | KLSMSQLYEWRNMNSVA | NASTREM | QQYHRLPLS | GP_Gibbs |
| 35 | 460 pM | 6 of 6 | 0 of 18 | AFSGSHLYESRNQNSVA | SASTREE | QQYHRLPLS | GP_Gibbs |
| 36 | 210 nM | 5 of 6 | 0 of 18 | KSSQSVLYESRNKNQCA | NASTRES | QQYHRLPLS | Ctrl |
| 37 | 4.2 nM | 6 of 6 | 1 of 18 | MIQQGENRDSEHYNSIA | NGHERPI | QQYYTLPLV | En_Gibbs |
| 38 | 2.9 nM | 6 of 6 | 0 of 18 | KLGCGVLYEGRNKNSVA | GASTRES | QQYHRLPLS | GP_HC |
| 39 | 420 pM | 6 of 6 | 0 of 18 | KLEEDALYESRNKNSVA | QASTREV | QQYHRLPLS | GP_Gibbs |
| 40 | 630 pM | 6 of 6 | 0 of 18 | KSLQSWLYESRNKNSVA | HASTRED | QQYHQLPLS | GP_HC |
| 41 | 18 nM | 6 of 6 | 1 of 18 | TLGLNTLVESIKKNNVA | EMSTRMN | QQYVRLPLA | En_Gen |
| 42 | 730 pM | 6 of 6 | 0 of 18 | KLSQSVLYESRNKNSVA | QGSTRES | QQYHRLPLS | GP_Gen |
| 43 | 710 pM | 6 of 6 | 0 of 18 | KLEQSVLYESRNKNSVA | NASTRED | QQYHRLPLS | GP_Gen |
| 44 | 1.3 nM | 6 of 6 | 1 of 18 | KFSQSVLYEPRTYNSVA | NASTRES | QQYHRLPLS | GP_HC |
| 45 | 1.2 nM | 6 of 6 | 0 of 18 | KLSQSDLYESRNKNQVA | EASTRES | QQYHRLPLS | GP_Gen |
| 46 | nd | 0 of 6 | 0 of 18 | QSSQSVLYESRNKNSVA | WASTRES | QQYSRLPLS | Ctrl |
| 47 | 5.3 nM | 6 of 6 | 0 of 18 | KLQQSDLYESRNKNSVA | EASTRLS | QQYHRLPLS | GP_Gen |
| 48 | 380 pM | 6 of 6 | 1 of 18 | KVPQGVLYESRNKNSVA | GASTRES | QQYHRLPLS | GP_HC |
| 49 | 44 nM | 6 of 6 | 0 of 18 | HFAYQLQSLYVSKQNVA | NASTVMT | QHYNRLPLS | En_Gibbs |
| 50 | 200 nM | 2 of 6 | 0 of 18 | KSSQSVLMESRNKNGVA | WASTRES | QQYHRLPLS | Ctrl |
| 51 | 1.2 nM | 6 of 6 | 0 of 18 | KLSQSVLYESRNKNSVA | EASTRMS | QDYHRLPLS | GP_Gen |
| 52 | 1.2 nM | 6 of 6 | 0 of 18 | KMPQSVWYEQRNKNSVA | NGSTRFS | QQYHRLPLS | GP_Gibbs |
| 53 | nd | 0 of 6 | 0 of 18 | KSSQSVIYESNNQNSVA | GASTRES | QQPFRLPLS | Ctrl |
| 54 | 320 nM | 6 of 6 | 0 of 18 | KLSMWTYGPTEDKYNVA | EDEMRWQ | QQYDKLPLI | En_Gibbs |
| 55 | 900 pM | 6 of 6 | 2 of 18 | KLMYSAEYESRNKNSVA | EASTRES | QQYHRLPLS | GP_Gibbs |
| 56 | nd | 0 of 6 | 0 of 18 | KVSEFMKGLMMRKDSIA | DNTTRES | QQYDRLPLS | En_Gen |
| 57 | 2.0 nM | 6 of 6 | 1 of 18 | TLTQVQGMESHNKNSVA | DLSVRGS | QQYHRLPLS | En_HC |
| 58 | 46 nM | 6 of 6 | 0 of 18 | KLRTVTGTEKVIGNNVA | EMETREK | QQYNRLPLS | En_Gen |

Repeated from above, the 7 best binders with a signal in all replicates:

CDR-L1	CDR-L2	CDR-L3	group	Kd	replicates with signal	empty controls
KLPQSVLYESRNKNSVA	EASTRED	QQYHRLPLS	GP_Gen	320 pM	6 of 6	1 of 18
KVPQGVLYESRNKNSVA	GASTRES	QQYHRLPLS	GP_HC	380 pM	6 of 6	1 of 18
KLEEDALYESRNKNSVA	QASTREV	QQYHRLPLS	GP_Gibbs	420 pM	6 of 6	0 of 18
AFSGSHLYESRNQNSVA	SASTREE	QQYHRLPLS	GP_Gibbs	460 pM	6 of 6	0 of 18
KLSWSMLYESRNVNSVA	DASTRES	QQYHRLPLS	GP_Gibbs	510 pM	6 of 6	1 of 18
KSLQSWLYESRNKNSVA	HASTRED	QQYHQLPLS	GP_HC	630 pM	6 of 6	0 of 18
KLEQSVLYESRNKNSVA	NASTRED	QQYHRLPLS	GP_Gen	710 pM	6 of 6	0 of 18

Values of this round are not directly comparable with the first-round values of the same sequences.
Nonspecific signal, from three strains lacking the peptide, appeared in 4% of pairings of all light chain designs, centred on 430 nM (5% of these signals below 38 nM); values are not corrected for it. The control count says in how many pairings with the empty strains this scFv gave a signal.
In the paper, a design with two or fewer of six values counts as a poor binder.
The parent sequence was in this pool as ten entries: three were never detected, three once, and four in most replicates, with averages from 2.2 nM to 240 nM.

Values reported by Li et al. 2023, doi:10.1038/s41467-023-39022-2 (FLAb copy).